Experimental data taken from ChEMBL document CHEMBL3407421, “Design, synthesis, X-ray crystallographic analysis, and biological evaluation of thiazole derivatives as potent and selective inhibitors of human dihydroorotate dehydrogenase” (J Med Chem, 2015).

Biological target: T1, Dihydroorotate dehydrogenase (Plasmodium falciparum, UniProt Q54A96)
T1 sequence (Q54A96 whole entry): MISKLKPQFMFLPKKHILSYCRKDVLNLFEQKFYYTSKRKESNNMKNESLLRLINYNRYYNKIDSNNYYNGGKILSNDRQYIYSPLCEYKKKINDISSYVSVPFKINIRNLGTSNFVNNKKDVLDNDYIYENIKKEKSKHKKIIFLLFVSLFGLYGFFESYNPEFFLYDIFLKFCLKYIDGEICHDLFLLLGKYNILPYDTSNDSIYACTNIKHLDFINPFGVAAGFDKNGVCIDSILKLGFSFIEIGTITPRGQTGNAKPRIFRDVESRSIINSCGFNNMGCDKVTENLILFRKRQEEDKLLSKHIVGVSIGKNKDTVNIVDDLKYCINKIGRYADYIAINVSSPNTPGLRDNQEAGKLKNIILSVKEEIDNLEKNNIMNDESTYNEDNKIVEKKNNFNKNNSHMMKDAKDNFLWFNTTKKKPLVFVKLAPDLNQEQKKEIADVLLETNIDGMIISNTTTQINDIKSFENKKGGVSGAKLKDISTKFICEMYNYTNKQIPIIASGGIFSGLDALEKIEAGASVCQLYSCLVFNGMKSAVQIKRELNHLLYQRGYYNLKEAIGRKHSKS
Assay: Inhibition of Plasmodium falciparum DHODH using dihydroorotate substrate by DCIP assay

IC50: 0.025 µM
Structure (SMILES): Cc1cc(Nc2ccc3ccccc3c2)n2ncnc2n1
